Experimental data taken from PubChem BioAssay (NCI).
The entries are a selection whose mix differs from that of the whole data set. Some structures have more than one record in an assay (separate samples or runs), and their calls can disagree. Active and inactive are the calls of the source. Cut-off read from the data, not from the text of the source: active = growth inhibition above about 70%; inactive = the rest.

Legend:
[1] = NCI Yeast Anticancer Drug Screen. Data for the rad50 strain (AID 155);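 note: 0% = growth of vehicle-only cultures of the same strain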; details: S. cerevisiae rad50 strain growth inhibition, hits give high values
[2] = NCI Yeast Anticancer Drug Screen. Data for the mec2-1 strain (AID 157); details: S. cerevisiae mec2-1 strain, hits give high values
[3] = NCI Yeast Anticancer Drug Screen. Data for the sgs1 mgt1 strain (AID 161);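 note: 0% = growth of cultures given vehicle only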; details: S. cerevisiae sgs1 mgt1 strain, hits give high values
[4] = NCI Yeast Anticancer Drug Screen. Data for the cln2 rad14 strain (AID 165);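 note: 0% = growth equal to vehicle treated cultures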; details: S. cerevisiae cln2 rad14 strain, hits give high values
[5] = NCI Yeast Anticancer Drug Screen. Data for the bub3 strain (AID 167); details: S. cerevisiae bub3 mutant strain, hits give high values
[6] = NCI Yeast Anticancer Drug Screen. Data for the mlh1 rad18 strain (AID 175); details: S. cerevisiae mlh1 rad18 strain growth inhibition, hits give high values
[7] = at 5.0 µM (retest, dose inferred, filed as 0.5)
[8] = at 50.0 µM (retest, dose inferred, filed as 5.0)

Measured: growth inhibition

COc1cc(CN(CCBr)CCBr)cc(OC)c1OC
inactive: [1]; at 50.0 µM -13.2% | [2]; at 50.0 µM -2.65% | [3]; at 50.0 µM -7.55% | [4]; at 50.0 µM -31.9% | [5]; at 50.0 µM 19.5% | [6]; at 50.0 µM -4.35%

Cc1cccc(C[N+](C)(CCCl)CCCl)c1[N+](=O)[O-]
active: [1]; at 11.0 µM 86% | [1]; at 33.0 µM 95% | [1]; [8] 89% | [1]; at 50.0 µM 84.3% | [1]; at 100.0 µM 96% | [2]; at 33.0 µM 88% | [2]; [8] 90% | [2]; at 50.0 µM 85.8% | [2]; at 100.0 µM 95% | [4]; [8] 88% | [4]; at 50.0 µM 79.7% | [5]; at 100.0 µM 80% | [6]; [8] 93% | [6]; at 50.0 µM 86.5%
inactive: [1]; at 1.2 µM 31% | [1]; at 3.7 µM 56% | [1]; [7] 30% | [2]; at 1.2 µM -4% | [2]; at 3.7 µM -5% | [2]; [7] 5% | [2]; at 11.0 µM 23% | [3]; [7] 12% | [3]; [8] 65% | [3]; at 50.0 µM 69% | [4]; [7] 36% | [5]; at 1.2 µM -15% | [5]; at 3.7 µM -32% | [5]; [7] -6% | [5]; at 11.0 µM -29% | [5]; at 33.0 µM 8% | [5]; [8] 65% | [5]; at 50.0 µM 29.7% | [6]; [7] 47%

CCCCC1(N(CCCl)CCCl)C(=O)NC(=O)NC1=O
inactive: [1]; at 50.0 µM 10.7% | [2]; at 50.0 µM 6.2% | [3]; at 50.0 µM 6.3% | [4]; at 50.0 µM -17.5% | [5]; at 50.0 µM 2.9% | [6]; at 50.0 µM 18.3%

O=S(=O)(CN(CCBr)CCBr)c1ccc(Cl)cc1
active: [1]; [7] 89% | [1]; [8] 99% | [1]; at 50.0 µM 87.3% | [2]; [8] 99% | [2]; at 50.0 µM 91.5% | [3]; [8] 99% | [3]; at 50.0 µM 87.2% | [4]; [8] 98% | [4]; at 50.0 µM 87.7% | [5]; [8] 99% | [5]; at 50.0 µM 82.5% | [6]; [7] 81% | [6]; [8] 98% | [6]; at 50.0 µM 92.5%
inactive: [2]; [7] 27% | [3]; [7] 40% | [4]; [7] 47% | [5]; [7] 32%

NC1CCCCC1.NP(=O)(O)N(CCCl)CCCl
active: [1]; at 50.0 µM 75%
inactive: [1]; [7] 2% | [1]; [8] 16% | [2]; [7] 10% | [2]; [8] 21% | [2]; at 50.0 µM -13.2% | [3]; [7] -7% | [3]; [8] 14% | [3]; at 50.0 µM 43.3% | [4]; [7] -20% | [4]; [8] -9% | [4]; at 50.0 µM 15.9% | [5]; [7] 8% | [5]; [8] -1% | [5]; at 50.0 µM 47.2% | [6]; [7] 2% | [6]; [8] 14% | [6]; at 50.0 µM 7.75%

Cn1cnc([N+](=O)[O-])c1C[N+](C)(CCCl)CCCl
active: [1]; at 33.0 µM 85% | [1]; [8] 82% | [1]; at 50.0 µM 76.8% | [1]; at 100.0 µM 92% | [2]; [8] 79% | [2]; at 50.0 µM 70.8% | [2]; at 100.0 µM 86% | [3]; [8] 71% | [3]; at 50.0 µM 70.2% | [4]; [8] 77% | [6]; [8] 92% | [6]; at 50.0 µM 77.5%
inactive: [1]; at 1.2 µM -10% | [1]; at 3.7 µM 18% | [1]; [7] 21% | [1]; at 11.0 µM 56% | [2]; at 1.2 µM -25% | [2]; at 3.7 µM -5% | [2]; [7] 3% | [2]; at 11.0 µM 13% | [2]; at 33.0 µM 63% | [3]; [7] 44% | [4]; [7] 8% | [4]; at 50.0 µM 60.4% | [5]; at 1.2 µM -29% | [5]; at 3.7 µM -28% | [5]; [7] 3% | [5]; at 11.0 µM -19% | [5]; at 33.0 µM 11% | [5]; [8] 56% | [5]; at 50.0 µM 7.55% | [5]; at 100.0 µM 61% | [6]; [7] 53%

Cc1ccccc1NC1CC(C)(C)NC(C)(C)C1
inactive: [1]; at 50.0 µM -4.75% | [2]; at 50.0 µM -11.8% | [3]; at 50.0 µM 6.05% | [4]; at 50.0 µM -0.65% | [5]; at 50.0 µM -6.7% | [6]; at 50.0 µM -9.05%

Cc1ccc([N+](=O)[O-])c(C[N+](C)(CCCl)CCCl)c1
inactive: [1]; at 1.2 µM 6% | [1]; at 3.7 µM 43% | [1]; [7] 17% | [2]; at 1.2 µM -16% | [2]; at 3.7 µM 7% | [2]; [7] 2% | [2]; at 11.0 µM 31% | [3]; [7] 32% | [3]; [8] 61% | [4]; [7] 34% | [5]; at 1.2 µM -8% | [5]; at 3.7 µM -8% | [5]; [7] 0% | [5]; at 11.0 µM -10% | [5]; at 33.0 µM 17% | [5]; [8] 62% | [5]; at 50.0 µM 29% | [6]; [7] 50%
active: [1]; at 11.0 µM 86% | [1]; at 33.0 µM 95% | [1]; [8] 87% | [1]; at 50.0 µM 85.4% | [1]; at 100.0 µM 96% | [2]; at 33.0 µM 88% | [2]; [8] 90% | [2]; at 50.0 µM 86.7% | [2]; at 100.0 µM 95% | [3]; at 50.0 µM 74.6% | [4]; [8] 88% | [4]; at 50.0 µM 78.6% | [5]; at 100.0 µM 87% | [6]; [8] 93% | [6]; at 50.0 µM 87.6%
